Our source for the n-fold stimulation values is US7300950B2, “Pyrazole derivatives, their preparation and their use in pharmaceuticals” (Aventis Pharma Deutschland GmbH, priority 1997, dated 2007).

This test deals with T1, soluble guanylate cyclase (sGC) isolated from bovine lung (Bos taurus, UniProt P16068+P19687).
T1 construct: The sGC which was employed had been isolated from bovine lung; from tissue; host or cells: bovine lung
T1 sequence (P16068 1-619): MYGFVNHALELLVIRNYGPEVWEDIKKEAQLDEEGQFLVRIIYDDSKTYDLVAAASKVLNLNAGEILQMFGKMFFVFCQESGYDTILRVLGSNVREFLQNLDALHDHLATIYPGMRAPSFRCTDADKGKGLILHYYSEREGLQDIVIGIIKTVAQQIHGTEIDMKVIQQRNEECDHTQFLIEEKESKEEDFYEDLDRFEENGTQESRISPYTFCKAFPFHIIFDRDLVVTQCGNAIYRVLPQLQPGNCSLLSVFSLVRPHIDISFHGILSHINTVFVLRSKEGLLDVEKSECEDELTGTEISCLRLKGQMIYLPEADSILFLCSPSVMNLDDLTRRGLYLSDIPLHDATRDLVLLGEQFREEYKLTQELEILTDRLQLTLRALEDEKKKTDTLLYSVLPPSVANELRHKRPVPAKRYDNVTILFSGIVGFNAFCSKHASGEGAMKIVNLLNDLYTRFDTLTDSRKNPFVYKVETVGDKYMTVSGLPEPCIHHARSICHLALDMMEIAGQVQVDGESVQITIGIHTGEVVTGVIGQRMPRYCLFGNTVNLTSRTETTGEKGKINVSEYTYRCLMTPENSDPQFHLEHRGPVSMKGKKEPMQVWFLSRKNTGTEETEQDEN
T1 sequence (P19687 1-691): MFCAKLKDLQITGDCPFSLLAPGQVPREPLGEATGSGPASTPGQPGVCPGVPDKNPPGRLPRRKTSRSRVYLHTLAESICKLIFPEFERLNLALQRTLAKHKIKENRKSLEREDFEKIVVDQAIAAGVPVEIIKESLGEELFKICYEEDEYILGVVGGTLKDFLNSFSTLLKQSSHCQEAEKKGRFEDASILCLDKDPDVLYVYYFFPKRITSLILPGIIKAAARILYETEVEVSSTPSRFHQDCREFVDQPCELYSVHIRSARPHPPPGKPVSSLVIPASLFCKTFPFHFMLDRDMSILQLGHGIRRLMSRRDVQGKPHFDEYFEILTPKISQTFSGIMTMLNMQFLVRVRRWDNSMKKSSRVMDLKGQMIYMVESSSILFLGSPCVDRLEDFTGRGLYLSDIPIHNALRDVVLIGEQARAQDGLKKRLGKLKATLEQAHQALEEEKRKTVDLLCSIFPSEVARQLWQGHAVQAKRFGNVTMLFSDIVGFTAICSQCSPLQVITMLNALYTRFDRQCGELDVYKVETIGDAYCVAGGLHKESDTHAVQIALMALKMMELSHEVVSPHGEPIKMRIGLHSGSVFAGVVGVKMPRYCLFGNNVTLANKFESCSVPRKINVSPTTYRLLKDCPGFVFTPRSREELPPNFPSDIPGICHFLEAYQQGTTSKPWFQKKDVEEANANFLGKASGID
Put plainly: Activation of the soluble guanylate cyclase (cGMP enzyme immunoassay). Type of test: biochemical. The conditions noted are these: concentration 100 μM; n-fold stimulation of basal enzyme activity = [cGMP]test substance/[cGMP]control. The procedure: 1. Activation of the Soluble Guanylate Cyclase
The activation of the sGC, which catalyzes the conversion of GTP into cyclic guanosine monophosphate cGMP and pyrophosphate, by the compounds according to the invention was quantified with the aid of an enzyme immunoassay “EIA” from Amersham. For this purpose the substances to be tested were initially incubated with sGC in microtiter plates, and the amount of the cGMP formed was then determined.
The test solutions (100 μl per well) contained 50 mM triethanolamine “TEA” buffer (pH 7.5), 3 mM MgCl2, 3 mM reduced glutathione “GSH,” 0.1 mM GTP, 1 mM 3-isobutyl-1-methylxanthine “IBMX,” suitably diluted enzyme solution and the substance to be tested or, in the control experiments, the solvent. […] The DMSO concentration in the test solution was 5% (v/v). The reaction was initiated by addition of the sGC. The reaction mixture was incubated at 37° C. for 15 to 20 minutes and then stopped by ice-cooling and addition of the stop reagent (50 mM EDTA, pH 8.0). […] The absorption of the samples was measured at 450 nm (reference wavelength 620 nm) in a microtiter plate reader. The cGMP concentration was determined using a standard curve which was obtained under the same test conditions. […] This is calculated using the formula: n-fold stimulation=[cGMP]test substance/[cGMP]control.

On to “1-Benzyl-3-(5-(1-hydroxyprop-2-in-1-yl)-2-furyl)indazole [Example 44]”, for which the n-fold stimulation is listed as 3.2-fold.
